Values belong to the compound of their own block, whether it stands above or below them.
Assays:
PIK3CB (Human) = PIK3CB (Human) (UniProt P42338); assay: Enzyme Assay
PIK3CG (human) = PIK3CG (human) (UniProt P48736); assay: Enzyme Assay
PIK3CD (Human) [1] = biological target: PIK3CD (Human) (UniProt O00329); assay: Enzyme Assay
PIK3CD (Human) [2] = biological target: PIK3CD (Human) (UniProt O00329); assay: Cell-Based Assay; conditions: raji

The chains behind the UniProt entries cited, without tags or fusion partners. Where a name states a change or a piece, a line headed by the entry shows the natural chain unless it says otherwise.
UniProt P42338: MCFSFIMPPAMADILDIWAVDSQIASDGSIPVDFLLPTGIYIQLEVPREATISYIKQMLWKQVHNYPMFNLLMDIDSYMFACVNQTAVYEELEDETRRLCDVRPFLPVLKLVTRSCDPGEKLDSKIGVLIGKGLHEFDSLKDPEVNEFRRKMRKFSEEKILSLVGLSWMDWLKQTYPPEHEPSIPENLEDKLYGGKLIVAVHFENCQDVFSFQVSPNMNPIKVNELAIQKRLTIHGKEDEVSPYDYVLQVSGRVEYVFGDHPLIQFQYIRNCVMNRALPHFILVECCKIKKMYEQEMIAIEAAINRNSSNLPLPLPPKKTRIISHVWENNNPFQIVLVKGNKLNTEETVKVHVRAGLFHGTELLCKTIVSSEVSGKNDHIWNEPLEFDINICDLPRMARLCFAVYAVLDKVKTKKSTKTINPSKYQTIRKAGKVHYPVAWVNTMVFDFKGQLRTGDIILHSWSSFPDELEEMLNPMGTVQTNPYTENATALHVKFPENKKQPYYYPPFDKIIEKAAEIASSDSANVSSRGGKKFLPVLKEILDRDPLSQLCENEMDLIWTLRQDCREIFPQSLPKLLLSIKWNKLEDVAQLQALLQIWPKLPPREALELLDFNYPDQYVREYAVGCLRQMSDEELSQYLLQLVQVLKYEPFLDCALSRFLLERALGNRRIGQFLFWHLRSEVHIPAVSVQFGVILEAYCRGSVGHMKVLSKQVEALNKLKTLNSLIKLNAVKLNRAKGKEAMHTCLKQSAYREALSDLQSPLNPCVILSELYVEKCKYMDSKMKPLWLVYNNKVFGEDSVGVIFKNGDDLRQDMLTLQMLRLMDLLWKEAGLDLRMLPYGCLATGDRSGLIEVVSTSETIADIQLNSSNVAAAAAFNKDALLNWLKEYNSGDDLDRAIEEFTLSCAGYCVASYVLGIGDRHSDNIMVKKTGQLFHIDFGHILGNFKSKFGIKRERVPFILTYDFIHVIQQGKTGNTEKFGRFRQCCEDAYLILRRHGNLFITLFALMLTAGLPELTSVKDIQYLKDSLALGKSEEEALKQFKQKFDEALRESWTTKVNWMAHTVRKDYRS
UniProt P48736: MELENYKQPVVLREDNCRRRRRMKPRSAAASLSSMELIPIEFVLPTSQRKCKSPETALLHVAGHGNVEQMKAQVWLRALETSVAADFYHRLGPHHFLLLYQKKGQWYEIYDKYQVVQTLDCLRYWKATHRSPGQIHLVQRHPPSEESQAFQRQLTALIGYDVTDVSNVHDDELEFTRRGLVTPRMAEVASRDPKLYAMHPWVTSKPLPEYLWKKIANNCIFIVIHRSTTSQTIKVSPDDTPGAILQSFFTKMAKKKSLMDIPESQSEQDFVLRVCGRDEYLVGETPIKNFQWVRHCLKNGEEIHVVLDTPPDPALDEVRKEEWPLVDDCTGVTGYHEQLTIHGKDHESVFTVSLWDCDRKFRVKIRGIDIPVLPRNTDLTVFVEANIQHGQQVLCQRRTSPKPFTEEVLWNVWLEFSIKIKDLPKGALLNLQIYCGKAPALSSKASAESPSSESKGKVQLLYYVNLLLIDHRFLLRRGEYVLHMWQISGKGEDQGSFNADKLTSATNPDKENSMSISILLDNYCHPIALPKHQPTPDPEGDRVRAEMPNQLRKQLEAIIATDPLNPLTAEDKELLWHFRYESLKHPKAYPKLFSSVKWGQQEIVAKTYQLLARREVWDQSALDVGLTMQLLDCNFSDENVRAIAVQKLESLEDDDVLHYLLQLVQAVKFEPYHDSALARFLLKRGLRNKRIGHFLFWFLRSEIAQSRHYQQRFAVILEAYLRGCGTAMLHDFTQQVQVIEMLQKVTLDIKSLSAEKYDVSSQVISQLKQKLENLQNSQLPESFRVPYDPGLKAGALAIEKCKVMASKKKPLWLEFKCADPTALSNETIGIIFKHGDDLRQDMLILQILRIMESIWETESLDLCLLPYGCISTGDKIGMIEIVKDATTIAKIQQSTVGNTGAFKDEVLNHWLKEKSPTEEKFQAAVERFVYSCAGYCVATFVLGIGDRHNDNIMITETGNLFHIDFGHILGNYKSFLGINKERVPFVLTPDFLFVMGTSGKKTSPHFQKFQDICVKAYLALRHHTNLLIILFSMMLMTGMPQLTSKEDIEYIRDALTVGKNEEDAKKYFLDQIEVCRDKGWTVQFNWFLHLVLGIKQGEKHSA
UniProt O00329: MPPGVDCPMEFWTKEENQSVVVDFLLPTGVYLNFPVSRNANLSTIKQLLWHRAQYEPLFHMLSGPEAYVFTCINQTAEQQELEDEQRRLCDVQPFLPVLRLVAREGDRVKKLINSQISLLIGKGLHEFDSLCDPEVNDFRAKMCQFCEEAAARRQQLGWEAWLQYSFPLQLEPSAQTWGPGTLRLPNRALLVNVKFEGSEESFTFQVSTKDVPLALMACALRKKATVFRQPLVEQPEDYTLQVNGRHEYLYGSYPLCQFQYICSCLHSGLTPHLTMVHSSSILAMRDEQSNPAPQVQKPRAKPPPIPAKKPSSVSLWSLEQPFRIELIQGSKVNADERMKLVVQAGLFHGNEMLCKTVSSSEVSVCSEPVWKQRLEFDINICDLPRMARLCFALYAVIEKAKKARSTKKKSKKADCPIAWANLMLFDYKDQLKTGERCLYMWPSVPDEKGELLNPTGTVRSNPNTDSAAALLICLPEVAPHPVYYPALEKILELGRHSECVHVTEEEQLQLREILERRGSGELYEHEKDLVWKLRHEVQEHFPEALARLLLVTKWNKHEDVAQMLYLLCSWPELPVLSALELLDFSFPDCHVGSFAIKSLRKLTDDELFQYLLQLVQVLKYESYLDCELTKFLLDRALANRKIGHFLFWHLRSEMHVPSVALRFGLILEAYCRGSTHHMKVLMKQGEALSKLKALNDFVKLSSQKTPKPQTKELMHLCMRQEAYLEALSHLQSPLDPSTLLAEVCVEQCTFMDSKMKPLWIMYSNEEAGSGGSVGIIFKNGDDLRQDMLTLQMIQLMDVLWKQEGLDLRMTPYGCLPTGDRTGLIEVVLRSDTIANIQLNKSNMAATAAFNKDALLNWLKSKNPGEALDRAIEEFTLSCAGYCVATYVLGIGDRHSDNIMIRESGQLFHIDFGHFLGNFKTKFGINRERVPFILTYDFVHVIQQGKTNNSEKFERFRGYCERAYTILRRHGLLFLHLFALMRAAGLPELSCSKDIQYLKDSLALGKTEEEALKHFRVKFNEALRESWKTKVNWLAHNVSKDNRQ

IC50 (PIK3CB (Human)): 5000 to 10000 nM
Compound: C[C@H](NC(=O)c1c(N)nn2cccnc12)c1cc2cccc(C#Cc3cnn(C)c3C(F)(F)F)c2c(=O)n1-c1ccccc1

IC50 (PIK3CG (human)): 1 to 100 nM
Compound: C[C@H](NC(=O)c1c(N)nn2cccnc12)c1cc2cccc(C#Cc3ccc(=O)[nH]c3)c2c(=O)n1-c1ccccc1

IC50 (PIK3CD (Human) [1]): 5000 to 10000 nM
IC50 (PIK3CD (Human) [2]): 100 to 500 nM
Compound: C[C@H](NC(=O)c1c(N)nn2cccnc12)c1cc2cccc(C#Cc3cnn(C)c3)c2c(=O)n1-c1ccccc1

IC50 (PIK3CG (human)): 1 to 100 nM
Compound: C[C@H](NC(=O)c1c(N)nn2cccnc12)c1cc2cccc(C#Cc3cn(C)cn3)c2c(=O)n1-c1ccccc1

Reference: the Kinase Knowledgebase extract (Sharma et al. 2016)
